Sampled rows, rich in hits. Any-hit rate of the full collection: about 1.3%.
miR-21 FLuc: miR-21 reporter, rising signal; HeLa miR-21 FLuc reporter, luciferase, 48 h; Potency, µM (titrated, usually from 38.3 µM), without a hit: top-dose reporter change, positive = more light; AID 2288; 340,000 tested, under 10 active; active = well fitted rising curve with a large enough effect; inconclusive = small, poorly fitted or top-dose-only effect; inactive = no such curve, though single readings can be large or run the other way;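 further: % of control where 0% means no effect; miR-21 action dims this reporter so a rising signal means less miR-21 action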
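Compounds were titrated across several concentrations (up to approximately 40 uM) and incubated 48 hours with HeLa miR-21-FLuc reporter cells (miR-21 target sequence downstream of FLuc, endogenous miR-21). Readout was firefly luciferase luminescence after lytic detection reagent.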
12-LOX inh: ALOX12 (human) lipoxygenase inhibition | P18054 | purified 12hLO, xylenol orange hydroperoxide absorbance | Potency, µM (series often up to 108 µM), for the others: top-dose activity change, negative = inhibition, hits mostly inhibitors | 1.1% of 580,000 active | AID 1671190; note: potency is the fitted concentration of half-maximal effect; % is set by controls: 0 for no effect and ±100 for the full control effect
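Hydroperoxide product was detected by ferrous iron/xylenol orange as the 573 to 405 nm absorbance ratio. Arachidonic acid at 40 uM (final) was turned over for 30 min at room temperature by 150 nM human 12hLO, pH 7.0 Hepes buffer, after 15 min compound preincubation.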
Giardia killer: Giardia lamblia killing | 0.15% of 340,000 active | activity change, % at 7.66 µM, hits read low | Giardia lamblia trophozoite viability; in the data active = activity change below about -80%; inconclusive = between about -30% and that limit;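 note: parasites exposed to compound for two days anaerobically before the ATP read; % is set by controls: 0 for no effect and ±100 for the full control effect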
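Anaerobic 48 hrs incubation at 37 deg C of 100 trophozoites/well with test compounds; ATPLite 1-Step luminescence, 15-30 min RT, reports cellular ATP as viability.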
PTHR1 agonist: activates the human parathyroid hormone receptor PTHR1; Potency, µM (doses to about 115 µM), for the others: top-dose activation, hits mostly activators; HEK293 GP2 PTHR1 cells, GloSensor cAMP luminescence, 1 h; Q03431; 0.075% of 410,000 active; note: potency is the fitted concentration of half-maximal effect; nearly all actives have a fitted effect of over 55% in size
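HEK-293-derived GP2 cells expressing PTHR1 and a GloSensor cAMP reporter, 3,000/well, plated overnight, given luciferin plus IBMX (each 0.5 mM as added) for 1 h at 37 °C, then compound for 1 h at 37 °C. Luminescence was read after 15 min at room temperature.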
ERG Ets-DNA blk: blocks human ERG Ets domain binding to DNA. P11308. fluorescence polarization, His-ERG Ets domain / labelled DNA. Potency, µM (top dose mostly 76.9 µM), for the others: at the highest dose FP activity, negative = inhibition, actives largely listed as inhibitors. 0.028% of 370,000 active; active = well fitted inhibition curve with a large enough effect in the polarisation, with a control signal flat; inconclusive = small, poorly fitted or top-dose-only effect, or effect the other way, or a change in a side signal; inactive = no such curve, though single readings can be large or run the other way; the % refers to the polarisation;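 note: polarization taken with two DNA probes labelled with fluorescein and Texas red; potency is the fitted concentration of half-maximal effect; % of control where 0% means no effect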
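His-tagged ERG Ets domain (1 uM in the protein solution; 300mM KCl, 50mM Tris-HCl, 1mM EDTA, 1mM DTT, pH 7.5) received compound, then a probe mix of 5 nM fluorescein-DNA and 100nM Texas-615-DNA. Fluorescence polarization was read for both dyes.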
PINK1 expr mod: PINK1 expression modulation; Potency, µM (doses to about 76.6 µM), for inactives: at the top dose activation (PINK1 increase), hits mostly activators; AID 624263; PINK1 immunofluorescence, high-content cytometry, 24 h; 0.2% of 410,000 active; active = well fitted activation curve with a large enough effect; inconclusive = small, poorly fitted or top-dose-only effect; cell line not stated here; note: potency is the fitted concentration of half-maximal effect; % of control where 0% means no effect; nearly all actives have a fitted effect of over 65% in size
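Compound titrations (5 concentrations, 24 h) on a stable cell line; DMSO and CCCP controls. Endpoint: fixed-cell PINK1 immunofluorescence with mitochondrial, cell and nuclear markers, scanned by microplate cytometer.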
Starred values were filed as active, the others as inactive; i = inactive; ? = inconclusive; . = no result; ! = not confirmed by another sample; [ ] = dose if it differs, or a comment. Unless noted, calls come from the whole dose curve; as a rule, active = well fitted curve in the direction sought with a large enough effect; inconclusive = small, poorly fitted or top-dose-only effect, or another doubt; inactive = no such curve, though single readings can be large; an effect the other way counts as inactive or inconclusive.

entry	canonical_smiles	miR-21 FLuc	12-LOX inh	Giardia killer	PTHR1 agonist	ERG Ets-DNA blk	PINK1 expr mod
1	CN(C)CCCN1c2ccc([N+](=O)[O-])cc2CCc2cc([N+](=O)[O-])ccc21	.	32µM*	13	-96%	.	2%
2	CSc1ccc(CNc2ncc(-c3cccc([N+](=O)[O-])c3)n2C)cc1	9%	0.71µM*	-8	-17%	-9%	2%
3	Cc1ccc(NC(=O)CN2C(=O)N/C(=C\c3cccn3-c3cccc(C(=O)O)c3)C2=O)cc1	1%	.	-10	-6%	5%	0%
4	Cc1ccc(NC(=O)CN2C(=O)N/C(=C/c3ccc(C)o3)C2=O)cc1	-2%	35µM*	17	i	2%	4%
5	Cc1ccc(NC(=O)CN2C(=O)N/C(=C/c3cc(C)n(-c4cccc(C(=O)O)c4)c3C)C2=O)cc1	-5%	18µM*	-8	-15%	15%	0%
6	Cc1cccc(NC(=O)CN2C(=O)N/C(=C/c3ccc(C)o3)C2=O)c1	-1%	?	-24	i	.	1%
7	CC[C@H]1CN(S(=O)(=O)c2c(C)noc2C)CC[C@H]1CC(=O)O	.	13%[176 µM]	.	.	.	.
8	Cn1c(Cn2cccn2)nnc1C1CC(NC(=O)c2sccc2N)C1 (stereo not given)	.	10µM*!	.	.	.	.
9	O=C1N[C@@H](c2ccccc2)COC(=O)[C@@H](Cc2ccc(F)cc2)C/C=C\C[C@H]1CC(=O)N(CCO)Cc1ccccc1	.	?	4	i	0%	1%
10	CC1(C)CC(C)(c2ccc(O)cc2O)N(c2ccc3ccccc3c2)C(=S)N1 (stereo not given)	-6%	18µM*	-6	i	-2%	-3%
11	CCCCNC(=O)CC(c1cccc([N+](=O)[O-])c1)c1c[nH]c2ccccc12 (stereo not given)	.	-6%	.	.	.	.
12	COCCNC(=O)CC(c1ccc(Cl)cc1)c1c[nH]c2ccc([N+](=O)[O-])cc12 (stereo not given)	.	7.1µM*	.	.	.	.
13	O=C(CC(c1ccc(Cl)cc1)c1c[nH]c2ccc([N+](=O)[O-])cc12)N1CCOCC1 (stereo not given)	.	8.9µM*	.	.	.	.
14	O=C(O)c1ccc2c(=O)n3c(nc2c1)/C(=C/c1ccccc1C(F)(F)F)CCCC3	-3%	2%	2	i	-15%	-2%
15	CC1(Cc2cccc(C(F)(F)F)c2)C(=O)Nc2c(Cl)cccc21 (stereo not given)	.	-15%	.	-12%	.	1%
16	O=C(NNC(=O)c1cc(C(F)(F)F)cc(C(F)(F)F)c1)c1ccc(Cl)cc1	6%	i	3	-12%	5%	8%
17	Cc1cnc(NC(=O)C(C)N2CCN(C)CC2)s1 (stereo not given)	-1%	2.5µM*	1	5%	-6%	1%
18	Cn1c(=O)c2c(=O)cc(N)[nH]c2n(C)c1=O	-1%	-13%	12	i	-5%	2%
19	COC(=O)c1noc(-c2ccc(Cl)cc2)n1	.	-25%	.	.	.	.
20	CO/C([O-])=N/c1c[n+](-c2ccc(Cl)cc2)no1	-13%	25µM*	13	i	-16%	-4%
21	O=C(CN1C(=O)NC(c2ccc(Cl)cc2)C2=C1COC2=O)Nc1ccc(Cl)cc1F (stereo not given)	.	8.9µM*	.	.	.	.
22	Cc1ccc(C2NC(=O)N(CC(=O)Nc3c(C)cccc3Cl)C3=C2C(=O)OC3)cc1 (stereo not given)	.	2%	.	.	.	.
23	CC(C)NC(=O)CN1C(=O)NC(c2ccc(Cl)cc2)C2=C1COC2=O (stereo not given)	.	62%	.	.	.	.
24	O=C(CN1C(=O)NC(c2ccc(Cl)cc2)C2=C1COC2=O)Nc1cc(F)cc(F)c1 (stereo not given)	.	11µM*	.	.	.	.
25	O=C(CN1C(=O)NC(c2ccc(Cl)cc2)C2=C1COC2=O)Nc1ccc(Br)cc1F (stereo not given)	.	4.5µM*	.	.	.	.
26	Cc1ccc(NC(=O)CN2C(=O)NC(c3ccc(Cl)cc3)C3=C2COC3=O)cc1 (stereo not given)	.	11µM*	.	.	.	.
27	COc1ccc2nc(NCc3ccccc3)[nH]c2c1	0%	-22%	-1	-2%[57.5 µM]	-1%	16µM*
28	CC(C)(C)OC(=O)N1CCC(NC(=O)c2[nH]cnc2C(=O)Nc2ccc(Br)cc2F)CC1	.	-1%	.	-29%	.	0%
29	c1cncc(-c2cncnc2NCc2cccs2)c1	.	7.9µM*	.	.	.	-1%
30	c1csc(CNc2ncncc2-c2ccc3c(c2)OCO3)c1	.	28µM*	.	.	.	8%
31	COc1ccccc1CNc1nc(-c2ccc3c(c2)OCO3)nc2ccccc12	.	?	.	.	.	16%
32	c1csc(CNc2nc(-c3ccc4c(c3)OCO4)nc3ccccc23)c1	.	11µM*	.	.	.	0%
33	N#Cc1cccc(OCC(=O)Nc2ccccc2C(=O)c2ccccc2)c1	.	5%	.	.	.	.
34	C/C(=N\NC(=S)NC1CCCCC1)c1ccc(OC(F)F)cc1OC(F)F	4%	28µM*	-2	-24%	15%	?
35	C/C(=N\NC(=O)C1CC1)c1ccc(OC(F)F)cc1OC(F)F	-1%	5%	12	i	-11%	0%
36	O=C(CN(C1CCCCC1)S(=O)(=O)c1ccc(F)cc1)NCC1CCCO1 (stereo not given)	.	-8%	-84*	-18%	14%	-1%
37	O=C(CN(C1CCCCC1)S(=O)(=O)c1ccccc1)NCC1CCCO1 (stereo not given)	-1%	6%	-5	-5%	-1%	0%
38	Cc1c(C)c(C)c(S(=O)(=O)Nc2cc(Cl)ccc2C(=O)N(C)C)c(C)c1C	.	40µM*	.	.	.	.
39	COc1ccc2c(c1)c(/C=C/c1cc[n+](C)cc1)cn2C	29%	50µM*	2	-3%	7%	7%
40	Oc1ccc(-c2nc(-c3cc4ccccc4o3)cs2)cc1	.	11µM*	.	.	.	.
41	C=CCNc1nc(-c2cc3ccccc3o2)cs1	-13%	50µM*	-9	-29%	3%	?
42	CCOc1ccccc1NC(=O)NCc1ccc(F)cc1	-8%	0%	-13	-14%	5%	0%
43	COc1ccc(-n2nc(C)c3c2NC(=O)CC3c2ccc(O)cc2)cc1 (stereo not given)	.	13%	.	.	.	.
44	C/C(=N/NS(=O)(=O)c1ccc(Cl)cc1)c1ccncc1	3%	?	7	-23%	-3%	0%

Bioassay records as filed in PubChem.
